Patent publication US9346795B2, “Substituted sulfonamides useful as antiapoptotic Bcl inhibitors” (Bristol-Myers Squibb Company, priority 2011, dated 2016)

Protein sequences, listed by entry. Tags and fused reporters are not part of them.
UniProt Q07817, whole entry: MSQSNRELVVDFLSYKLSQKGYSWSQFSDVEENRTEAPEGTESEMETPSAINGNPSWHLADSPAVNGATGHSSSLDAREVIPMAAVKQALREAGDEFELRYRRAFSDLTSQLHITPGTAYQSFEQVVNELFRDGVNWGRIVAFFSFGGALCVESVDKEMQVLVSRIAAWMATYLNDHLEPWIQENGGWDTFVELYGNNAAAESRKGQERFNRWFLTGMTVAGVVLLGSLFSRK
UniProt P10415, whole entry: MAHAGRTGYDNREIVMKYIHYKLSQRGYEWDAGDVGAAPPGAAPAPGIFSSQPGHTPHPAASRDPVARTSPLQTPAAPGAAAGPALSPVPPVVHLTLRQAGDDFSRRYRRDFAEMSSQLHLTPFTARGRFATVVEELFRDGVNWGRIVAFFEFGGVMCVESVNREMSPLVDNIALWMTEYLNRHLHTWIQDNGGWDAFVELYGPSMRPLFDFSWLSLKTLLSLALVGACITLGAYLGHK

Tests used:
[1] = target: Bcl-xL (Homo sapiens (Human), UniProt Q07817); experiment: Bcl-xL/Bim Fluorescence Resonance Energy Transfer Assay (FRET); assay type: binding
Procedure: Bcl-xL/Bim Fluorescence Resonance Energy Transfer Assay (FRET) The assays were performed in black flat-bottom 384-well plates. The final assay volume was 55 μl prepared from additions of Biotin-Bcl-xL (Bcl-xL: GENBANK® Accession No. […] The reaction was incubated at room temperature for 60 minutes. After 60 minutes, 5 μL of Streptavidin-Terbium FRET detection reagent (Perkin Elmer) was added to the reaction mixture and incubated at room temperature in the dark for 30 mins. […] Compounds were dissolved at 10 mM in dimethylsulfoxide (DMSO) and evaluated at eleven concentrations. IC50 values were derived by non-linear regression analysis.

[2] = target: Bcl-2 (Homo sapiens (Human), UniProt P10415); experiment: Bcl-2/Bim Fluorescence Polarization Assay (FPA); assay type: binding
Procedure: Bcl-2/Bim Fluorescence Polarization Assay (FPA)
The assays were performed in black flat-bottom 384-well plates. […] The reaction was incubated at room temperature for 60 minutes and fluorescence polarization of the reaction was detected on the LJL Plate Reader. Inhibition data were calculated from mP values generated by the no protein control reactions for 100% inhibition and vehicle-only reactions for 0% inhibition. The final concentrations of reagents in the assay were 4.9 nM BCL-2, 5 nM fluoresceinated 18-mer BIM peptide and 1% DMSO. Dose response curves were generated to determine the concentration required inhibiting 50% of kinase activity (IC50). Compounds were dissolved at 10 mM in dimethylsulfoxide (DMSO) and evaluated at eleven concentrations. IC50 values were derived by non-linear regression analysis.

SMILES	IC50 [1]	IC50 [2]
CCCCc1c(-c2ccc(C(=O)NS(=O)(=O)c3ccc4ccccc4c3)cc2C(=O)N2CCc3ccccc3C2)c(CO)nn1-c1ccc(OCC(O)CO)cc1 (racemic) [Example 258, (±)-4-(5-Butyl-1-(4-(2,3-dihydroxypropoxy)phenyl)-3-(hydroxymethyl)-1H-pyrazol-4-yl)-N-(naphthalen-2-ylsulfonyl)-3-(1,2,3,4-tetrahydroisoquinoline-2-carbonyl)benzamide]	4.96 nM	
CCCCN(CCCC)C(=O)c1nn(-c2ccc(C(=O)NS(=O)(=O)c3ccc4cccc(I)c4c3)cc2C(=O)N2CCc3ccccc3C2)c(C)c1Cl [Example 7, N,N-dibutyl-4-chloro-1-(4-(8-iodonaphthalen-2-ylsulfonylcarbamoyl)-2-(1,2,3,4-tetrahydroisoquinoline-2-carbonyl)phenyl)-5-methyl-1H-pyrazole-3-carboxamide]	40 nM	40 nM
CCCCN(CCCC)C(=O)c1nn(-c2ccc(C(=O)NS(=O)(=O)c3ccc4ccccc4c3)cc2C(=O)N2Cc3ccccc3C[C@H]2CO)c(C)c1Cl [Example 91, N,N-Dibutyl-4-chloro-1-(2-((S)-3-(hydroxymethyl)-1,2,3,4-tetrahydroisoquinoline-2-carbonyl)-4-(naphthalen-2-ylsulfonylcarbamoyl)phenyl)-5-methyl-1H-pyrazole-3-carboxamide]	6.27 nM	
CCCCN(CCCC)C(=O)c1nn(-c2ccc(C(=O)NS(=O)(=O)c3ccc4ccccc4c3)cc2C(=O)N2Cc3ccccc3C[C@H]2CNC2CCN(C)CC2)c(C)c1Cl [Example 106, N,N-Dibutyl-4-chloro-5-methyl-1-(2-((S)-3-((1-methylpiperidin-4-ylamino)methyl)-1,2,3,4-tetrahydroisoquinoline-2-carbonyl)-4-(naphthalen-2-ylsulfonylcarbamoyl)phenyl)-1H-pyrazole-3-carboxamide]	7.06 nM	
